Assay results: US20200323882A1, “PHLIP®-MEDIATED TARGETING OF CORTICOSTEROIDS TO DISEASED TISSUE” (priority 2019, published 2020)

Tests used:
[1] = system: RPMI 8226 myeloma cells; settings: 5 μM pHLIP-Dexa with increasing amounts of pHLIP-Cal, viability after 22 hours
[2] = 11.4 mg/kg pHLIP-Dexa in PBS/5% DMSO

Substance: pHLIP-(PEG4)-dexamethasone [pHLIP-Dexa]
- effect on cytotoxicity of pHLIP-Cal [1]: enhanced cytotoxic effect of pHLIP-Cal
- appearance of solution (aggregation) [2]: cloudy
